doi:10.1101/2024.06.30.601371 (bioRxiv, 2024)

B1: mKO2-tagged RIβ-A67V (natural protein)
chain: not shown
B2: mKO2-tagged RIβ-I40V (natural protein)
chain: not shown
B3: mKO2-tagged RIβ-R68Q (natural protein)
chain: not shown

Target: the molecule itself
Assay: non-reducing SDS-PAGE with Western blot

Stoichiometry N, 2:
B1
B2
B3
